Among the data in ChEMBL document CHEMBL5727998, “8-amino-2-oxo-1,3-diaza-spiro-[4.5]-decane derivatives” (2020) are Ki values, retold here.

For one test, the target named is Nociceptin receptor (Homo sapiens, UniProt P41146). Description: Receptor Binding Assay: The hNOP receptor binding assay was performed as homogeneous SPA-assay (scintillation proximity assay) using the assay buffer 50 mM TRIS-HCl. 10 mM MgCl2. 1 mM EDTA (pH 7.4). The final assay volume (250 μl/well) included 0.5 nM of [leucyl-3H]nociceptin as ligand (PerkinElmer Life Sciences. Inc. Boston. Mass. USA). and either test compound in dilution series or 1 μM unlabell. For orientation: Scintillation proximity formats need no separation of bound from free tracer.

The target of another test is Mu-type opioid receptor (Homo sapiens, UniProt P35372). Description: Receptor Binding Assay: The hMOP receptor binding assay was performed as homogeneous SPA-assay (scintillation proximity assay) using the assay buffer 50 mM TRIS-HCl (pH 7.4) supplemented with 0.052 mg/ml bovine serum albumin (Sigma-Aldrich Co. St. Louis. Mo.). The final assay volume (250 ul/well) included 1 nM of [N-allyl-2.3-3H]naloxone as ligand (PerkinElmer Life Sciences. Inc. Boston. Mass. USA.

Several values for one entry are separate records, joined by “and”; a condition that tells them apart may be missing. Equal values may be shown once.

As usually defined, the Ki is a dissociation constant, usually derived from enzyme kinetics or from competition with a known ligand. Regarding `CN(C)[C@]1(c2ccccc2)CC[C@]2(CC1)CN(CC(C)(C)C#N)C(=O)N2CC1(F)CC1`, affinity at Nociceptin receptor was put at a Ki of 690 nM.

As for `CN(C)[C@]1(c2ccccc2)CC[C@@]2(CC1)CN(CC(C)(C)C#N)C(=O)N2CC1CC1`, the Ki was determined as 230 nM on Mu-type opioid receptor and 24 nM on Nociceptin receptor. In the case of `CN(C)[C@]1(c2ccccc2)CC[C@]2(CC1)CN(CC1(O)CCS(=O)(=O)CC1)C(=O)N2CC1CC1`, the inhibition constant Ki at Mu-type opioid receptor is 1810 nM and 495 nM. Regarding `CN(C)[C@]1(c2ccccc2)CC[C@]2(CC1)CN(C1CCN(c3cncnc3)CC1)C(=O)N2CC1CC1`, the Ki on Mu-type opioid receptor is 1.76 µM [middle of 4 runs]. Turning to `CN(C)[C@]1(c2ccccc2)CC[C@]2(CC1)CN(CCN1CCOCC1)C(=O)N2CC1(O)CCC1`, the Ki at Mu-type opioid receptor is 206 nM and 643 nM; at Nociceptin receptor, 155 nM and 26 nM and 57 nM. `CN(C)[C@]1(c2ccccc2)CC[C@]2(CC1)CN(CC1CCS(=O)(=O)CC1)C(=O)N2CC1(O)CCC1`: the inhibitory constant (Ki) on Mu-type opioid receptor is 245 nM and 185 nM and 1290 nM. Turning to `CN(C)[C@]1(c2ccccc2)CC[C@]2(CC1)CN(CC1(O)CCS(=O)(=O)CC1)C(=O)N2CC1CCC1`, the Ki on Mu-type opioid receptor was 125 nM and 124 nM; on Nociceptin receptor, 4 nM. For the compound `CN(C)[C@]1(c2cccc(F)c2)CC[C@]2(CC1)CN(CC1(O)CCS(=O)(=O)CC1)C(=O)N2CC1(O)CCC1`, the Ki at Mu-type opioid receptor is 330 nM and 96 nM. For the compound `CN(C)[C@]1(c2ccccc2)CC[C@]2(CC1)CN(C1CCN(c3cncnc3)CC1)C(=O)N2CC1(O)CCC1`, the results for the inhibition constant Ki on Mu-type opioid receptor and at Nociceptin receptor were 630 nM and 8 nM, respectively. `CN(C)[C@]1(c2ccccc2)CC[C@]2(CC1)CN(CCC1(O)CCS(=O)(=O)CC1)C(=O)N2CC1(O)CCC1`: the Ki on Mu-type opioid receptor is 415 nM and 4140 nM. For the compound `CN(C)[C@]1(c2ccccc2)CC[C@]2(CC1)CN(CC1(O)CCS(=O)(=O)CC1)C(=O)N2CC1(O)CCC1`, the Ki at Mu-type opioid receptor is 1060 nM and 415 nM; at Nociceptin receptor it was 19 nM and 17 nM.
